Assay results published in paper PMC6925656 (Clinical pharmacology and therapeutics, 2019).

Tested on: Oct1
Experiment: Pharmacokinetics in Oct1-deficient versus wild-type mice
Details: sorafenib 10 mg/kg oral, 7.5 h

Substance: sorafenib-glucuronide
- Liver concentrations, Oct1-deficient vs wild-type mice: no significant differences
- Liver-to-plasma ratio, Oct1-deficient vs wild-type mice: no significant differences
